The chains behind the UniProt entries cited, without tags or fusion partners. Where a name states a change or a piece, a line headed by the entry shows the natural chain unless it says otherwise.
UniProt P22411: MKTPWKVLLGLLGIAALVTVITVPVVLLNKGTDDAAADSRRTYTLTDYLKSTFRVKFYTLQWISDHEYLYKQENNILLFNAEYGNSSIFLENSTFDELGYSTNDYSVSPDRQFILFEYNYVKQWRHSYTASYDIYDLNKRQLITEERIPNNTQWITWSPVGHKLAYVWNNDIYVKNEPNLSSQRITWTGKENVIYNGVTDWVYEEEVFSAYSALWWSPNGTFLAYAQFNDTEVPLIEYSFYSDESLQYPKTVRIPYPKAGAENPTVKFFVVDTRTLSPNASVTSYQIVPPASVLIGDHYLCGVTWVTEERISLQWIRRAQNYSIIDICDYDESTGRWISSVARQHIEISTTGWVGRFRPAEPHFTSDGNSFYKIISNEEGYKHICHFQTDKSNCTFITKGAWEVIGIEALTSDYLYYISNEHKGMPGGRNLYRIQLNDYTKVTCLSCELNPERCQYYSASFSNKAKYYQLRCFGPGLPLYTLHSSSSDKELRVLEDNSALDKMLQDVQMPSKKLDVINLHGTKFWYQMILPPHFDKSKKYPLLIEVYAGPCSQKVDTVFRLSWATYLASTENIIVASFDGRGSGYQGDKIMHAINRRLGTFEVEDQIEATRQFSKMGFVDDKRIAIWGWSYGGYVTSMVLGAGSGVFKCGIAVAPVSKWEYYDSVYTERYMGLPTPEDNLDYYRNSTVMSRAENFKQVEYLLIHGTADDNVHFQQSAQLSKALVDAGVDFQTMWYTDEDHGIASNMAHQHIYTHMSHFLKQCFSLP

According to US7074798B2, “Xanthine derivative and DPPIV inhibitor” (Eisai Co., Ltd, priority 2002, dated 2006):

Molecular target: T1, DPP-IV obtained from swine kidney (Sus scrofa, UniProt P22411)
T1 construct: DPP-IV obtained from swine kidney; from tissue; host or cells: swine kidney
Experiment: Determination of the inhibition action of DPPIV
Format: biochemical
Experimental: DPP-IV obtained from swine kidney was dissolved in reaction buffer (50 mM Tris-HCl pH 7.4, 0.1% BSA) at a concentration of 10 mU/mL, and 110 μl of the solution was added. Then, medicament (15 μl) was added thereto, and the mixture was incubated at room temperature for 20 minutes. Gly-Pro-p-nitroanilide (25 μl, final concentration: 0.33 mM) dissolved to 2 mM was added to the mixture to start enzymatic reaction. The reaction time was 20 minutes, and 1N phosphoric acid solution (25 μl) was added to the mixture to quench the reaction.

## N#Cc1ccc(NCCNCC(=O)N2CCC[C@H]2C#N)nc1 [Control compound 2]
  IC50: 226 nM
